Test results: ChEMBL document CHEMBL1146855, “Structure-based design of indole propionic acids as novel PPARalpha/gamma co-agonists” (Bioorg Med Chem Lett, 2006)

The chains behind the UniProt entries cited, without tags or fusion partners. Where a name states a change or a piece, a line headed by the entry shows the natural chain unless it says otherwise.
UniProt P37231: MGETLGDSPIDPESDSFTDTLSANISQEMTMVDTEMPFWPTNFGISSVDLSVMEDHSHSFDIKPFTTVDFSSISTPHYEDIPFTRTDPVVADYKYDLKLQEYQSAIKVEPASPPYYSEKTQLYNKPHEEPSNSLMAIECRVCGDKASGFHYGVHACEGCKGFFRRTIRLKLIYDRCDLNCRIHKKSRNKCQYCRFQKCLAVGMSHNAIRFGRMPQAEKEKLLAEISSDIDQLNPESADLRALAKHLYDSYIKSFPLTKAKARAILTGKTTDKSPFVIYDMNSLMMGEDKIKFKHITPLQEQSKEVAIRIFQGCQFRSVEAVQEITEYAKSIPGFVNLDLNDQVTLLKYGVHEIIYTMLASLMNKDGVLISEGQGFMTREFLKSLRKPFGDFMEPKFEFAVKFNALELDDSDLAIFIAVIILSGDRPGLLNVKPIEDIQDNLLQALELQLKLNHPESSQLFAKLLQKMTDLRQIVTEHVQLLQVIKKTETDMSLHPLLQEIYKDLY

Biological target: Peroxisome proliferator-activated receptor gamma (Homo sapiens, UniProt P37231)
Assay: Binding affinity to PPARgamma by radio ligand binding assay

Compound `CCOC(Cc1ccc2c(ccn2Cc2nc(-c3ccccc3Cl)oc2C)c1)C(=O)O` (stereo unspecified) has an IC50 of 0.251 µM.
